From ChEMBL document CHEMBL5505991, “Novel sulfonamide-indolinone hybrids targeting mitochondrial respiration of breast cancer cells” (Eur J Med Chem, 2024)

Chains of the proteins cited; added tags and fusions are not shown.
UniProt Q96GD4, whole entry: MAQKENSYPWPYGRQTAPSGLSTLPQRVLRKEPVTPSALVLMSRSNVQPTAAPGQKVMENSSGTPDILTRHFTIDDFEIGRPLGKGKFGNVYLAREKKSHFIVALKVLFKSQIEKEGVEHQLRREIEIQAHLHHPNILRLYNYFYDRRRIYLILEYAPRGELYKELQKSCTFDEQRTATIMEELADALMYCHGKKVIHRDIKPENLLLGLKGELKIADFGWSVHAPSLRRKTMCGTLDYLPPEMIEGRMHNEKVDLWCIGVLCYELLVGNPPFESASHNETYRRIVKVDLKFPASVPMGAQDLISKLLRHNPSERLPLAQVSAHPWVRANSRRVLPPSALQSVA

Target: Aurora kinase B (Homo sapiens, UniProt Q96GD4)
Test: Inhibition of Aurora B (unknown origin) at 100 nM by Z-LYTE assay relative to control

## O=C1Nc2cc(-c3ccc(NS(=O)(=O)c4ccc(F)c(Cl)c4)cc3)ccc2/C1=C/c1ccc[nH]1
  inhibition: 46%
